IC50 data for 22 molecules are collected here from patent US20090099157A1, “TETRAHYDRO-PYRAZOLO-PYRIDINE THIOETHER MODULATORS OF CATHEPSIN S” (priority 2007, published 2009).

Chains of the proteins cited; added tags and fusions are not shown. Residues count along the entry.
UniProt P25774, 115-331: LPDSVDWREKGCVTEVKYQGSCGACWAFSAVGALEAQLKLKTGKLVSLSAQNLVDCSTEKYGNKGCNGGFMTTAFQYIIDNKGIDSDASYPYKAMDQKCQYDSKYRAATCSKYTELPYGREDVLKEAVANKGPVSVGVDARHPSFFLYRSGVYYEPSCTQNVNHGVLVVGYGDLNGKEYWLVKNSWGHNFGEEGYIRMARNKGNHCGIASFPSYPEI

In the assay the target is Recombinant human cathepsin S (CatS) (Homo sapiens, UniProt P25774). Nature of the assay: biochemical.

Broadly, the IC50 is the concentration at which inhibition is half-maximal. For `CCCNCCSc1cc(-c2nn(CCCN3CCCCC3)c3c2CN(S(C)(=O)=O)CC3)ccc1C(F)(F)F` [Example 151, N-[2-({5-[5-(Methylsulfonyl)-1-(3-piperidin-1-ylpropyl)-4,5,6,7-tetrahydro-1H-pyrazolo[4,3-c]pyridin-3-yl]-2-(trifluoromethyl)phenyl}sulfanyl)ethyl]propan-1-amine], the IC50 was 700 nM.
Then `CS(=O)(=O)N1CCc2c(c(-c3ccc(C(F)(F)F)c(SCCN4CCC(F)CC4)c3)nn2C[C@@H](O)CN2CCCC(C(=O)O)C2)C1` (stereo partly drawn) [Example 617, 1-[(2S)-3-{3-[3-{[2-(4-Fluoropiperidin-1-yl)ethyl]sulfanyl}-4-(trifluoromethyl)phenyl]-5-(methylsulfonyl)-4,5,6,7-tetrahydro-1H-pyrazolo[4,3-c]pyridin-1-yl}-2-hydroxypropyl]piperidine-3-carboxylic acid], with 240 nM; and `COc1ccccc1C1CCN(CC(O)Cn2nc(-c3ccc(C(F)(F)F)c(SCCN4CCCC4)c3)c3c2CCN(S(C)(=O)=O)C3)CC1` (stereo not shown) [Example 703, 1-{4-[2-(Methyloxy)phenyl]piperidin-1-yl}-3-[5-(methylsulfonyl)-3-{3-[(2-pyrrolidin-1-ylethyl)sulfanyl]-4-(trifluoromethyl)phenyl}-4,5,6,7-tetrahydro-1H-pyrazolo[4,3-c]pyridin-1-yl]propan-2-ol], with 30 nM; and `CS(=O)(=O)N1CCc2c(c(-c3ccc(C(F)(F)F)c(SCC(=O)N4CCOCC4)c3)nn2CC(O)CN2CCC(O)(c3ccccc3)CC2)C1` (stereo not shown) [Example 778, 1-{2-Hydroxy-3-[5-(methylsulfonyl)-3-{3-[(2-morpholin-4-yl-2-oxoethyl)sulfanyl]-4-(trifluoromethyl)phenyl}-4,5,6,7-tetrahydro-1H-pyrazolo[4,3-c]pyridin-1-yl]propyl}-4-phenylpiperidin-4-ol], with 65 nM.
Then `CS(=O)(=O)N1CCc2c(c(-c3ccc(C(F)(F)F)c(SCCN4CCCC(CO)C4)c3)nn2CC(O)CN2CCCCC2)C1` (stereo not shown) [Example 457, 1-{3-[3-({2-[3-(Hydroxymethyl)piperidin-1-yl]ethyl}sulfanyl)-4-(trifluoromethyl)phenyl]-5-(methylsulfonyl)-4,5,6,7-tetrahydro-1H-pyrazolo[4,3-c]pyridin-1-yl}-3-piperidin-1-ylpropan-2-ol], with 610 nM.
Then `CS(=O)(=O)N1CCc2c(c(-c3ccc(C(F)(F)F)c(SCCN4CCC(F)(F)CC4)c3)nn2C[C@@H](O)CN2CC3CCCC3C2)C1` (stereo partly drawn) [Example 612, (2S)-1-{3-[3-{[2-(4,4-Difluoropiperidin-1-yl)ethyl]sulfanyl}-4-(trifluoromethyl)phenyl]-5-(methylsulfonyl)-4,5,6,7-tetrahydro-1H-pyrazolo[4,3-c]pyridin-1-yl}-3-(hexahydrocyclopenta[c]pyrrol-2(1H)-yl)propan-2-ol], with 90 nM; and `CCC(=O)N1CCc2c(c(-c3ccc(C(F)(F)F)c(SCCN4CCC(F)CC4)c3)nn2C[C@@H](O)CN2CCCCC2)C1` [Example 337, (2S)-1-{3-[3-{[2-(4-Fluoropiperidin-1-yl)ethyl]sulfanyl}-4-(trifluoromethyl)phenyl]-5-propanoyl-4,5,6,7-tetrahydro-1H-pyrazolo[4,3-c]pyridin-1-yl}-3-piperidin-1-ylpropan-2-ol], with 690 nM.
Regarding `CS(=O)(=O)N1CCc2c(c(-c3ccc(C(F)(F)F)c(SCCN4CCC(F)CC4)c3)nn2CC(O)CN2CCC[C@H]2CO)C1` (stereo partly drawn) [Example 491, 1-{3-[3-{[2-(4-Fluoropiperidin-1-yl)ethyl]sulfanyl}-4-(trifluoromethyl)phenyl]-5-(methylsulfonyl)-4,5,6,7-tetrahydro-1H-pyrazolo[4,3-c]pyridin-1-yl}-3-[(2S)-2-(hydroxymethyl)pyrrolidin-1-yl]propan-2-ol], the IC50 was 550 nM.
In the case of `O=C(CO)N1CCc2c(c(-c3ccc(C(F)(F)F)c(SCCN4CCC(F)CC4)c3)nn2C[C@@H](O)CN2CCCCC2)C1` [Example 251, (2S)-1-{3-[3-{[2-(4-Fluoropiperidin-1-yl)ethyl]sulfanyl}-4-(trifluoromethyl)phenyl]-5-(hydroxyacetyl)-4,5,6,7-tetrahydro-1H-pyrazolo[4,3-c]pyridin-1-yl}-3-piperidin-1-ylpropan-2-ol] it was 230 nM; in that of `CC(=O)N1CCc2c(c(-c3ccc(C(F)(F)F)c(SCC(=O)N4CCCC4)c3)nn2CC(O)CN2CCc3ccccc3C2)C1` (stereo not shown) [Example 369, 1-(5-Acetyl-3-{3-[(2-oxo-2-pyrrolidin-1-ylethyl)sulfanyl]-4-(trifluoromethyl)phenyl}-4,5,6,7-tetrahydro-1H-pyrazolo[4,3-c]pyridin-1-yl)-3-(3,4-dihydroisoquinolin-2(1H)-yl)propan-2-ol], 270 nM; in that of `COC(=O)C(=O)N1CCc2c(c(-c3ccc(C(F)(F)F)c(SCCNC(=O)OCc4ccccc4)c3)nn2CC(O)CN2CCC(c3ccccn3)CC2)C1` (stereo not shown) [Example 871, Methyl {1-[2-hydroxy-3-(4-pyridin-2-ylpiperidin-1-yl)propyl]-3-[3-{[2-({[(phenylmethyl)oxy]carbonyl}amino)ethyl]sulfanyl}-4-(trifluoromethyl)phenyl]-1,4,6,7-tetrahydro-5H-pyrazolo[4,3-c]pyridin-5-yl}(oxo)acetate], 45 nM.
Then `O=S(=O)(C1CC1)N1CCc2c(c(-c3ccc(C(F)(F)F)c(SCCN4CCC(F)CC4)c3)nn2C[C@@H](O)CN2CCCCC2)C1` [Example 547, (2S)-1-{5-(Cyclopropylsulfonyl)-3-[3-{[2-(4-fluoropiperidin-1-yl)ethyl]sulfanyl}-4-(trifluoromethyl)phenyl]-4,5,6,7-tetrahydro-1H-pyrazolo[4,3-c]pyridin-1-yl}-3-piperidin-1-ylpropan-2-ol], with 230 nM; and `CC1C(=O)NCCN1CCSc1cc(-c2nn(CC(O)CN3CCCCC3)c3c2CN(S(C)(=O)=O)CC3)ccc1C(F)(F)F` (stereo not shown) [Example 166, 4-[2-({5-[1-(2-Hydroxy-3-piperidin-1-ylpropyl)-5-(methylsulfonyl)-4,5,6,7-tetrahydro-1H-pyrazolo[4,3-c]pyridin-3-yl]-2-(trifluoromethyl)phenyl}sulfanyl)ethyl]-3-methylpiperazin-2-one], with 640 nM; and `O=C(CSc1cc(-c2nn(CC(O)CN3CCC(O)CC3)c3c2CNCC3)ccc1C(F)(F)F)N1CCCC1` (stereo not shown) [Example 294, 1-[2-Hydroxy-3-(3-{3-[(2-oxo-2-pyrrolidin-1-ylethyl)sulfanyl]-4-(trifluoromethyl)phenyl}-4,5,6,7-tetrahydro-1H-pyrazolo[4,3-c]pyridin-1-yl)propyl]piperidin-4-ol], with 4430 nM.
Then `CC(C)NC(=O)N1CCc2c(c(-c3ccc(C(F)(F)F)c(SCCN4CCC(F)CC4)c3)nn2C[C@@H](O)CN2CCCCC2)C1` [Example 434, 3-[3-{[2-(4-Fluoropiperidin-1-yl)ethyl]sulfanyl}-4-(trifluoromethyl)phenyl]-1-[(2S)-2-hydroxy-3-piperidin-1-ylpropyl]-N-(1-methylethyl)-1,4,6,7-tetrahydro-5H-pyrazolo[4,3-c]pyridine-5-carboxamide], with 540 nM; and `COc1ccccc1C1CCN(C[C@@H](O)Cn2nc(-c3ccc(C(F)(F)F)c(SCCN4CCC(F)CC4)c3)c3c2CCN(S(C)(=O)=O)C3)CC1` [Example 841, (2R)-1-{3-[3-{[2-(4-Fluoropiperidin-1-yl)ethyl]sulfanyl}-4-(trifluoromethyl)phenyl]-5-(methylsulfonyl)-4,5,6,7-tetrahydro-1H-pyrazolo[4,3-c]pyridin-1-yl}-3-{4-[2-(methyloxy)phenyl]piperidin-1-yl}propan-2-ol], with 20 nM; and `Oc1ccc(N2CCN(CC(O)Cn3nc(-c4ccc(C(F)(F)F)c(SCCN5CCCCC5)c4)c4c3CCNC4)CC2)cc1` (stereo not shown) [Example 384, 4-{4-[2-Hydroxy-3-(3-{3-[(2-piperidin-1-ylethyl)sulfanyl]-4-(trifluoromethyl)phenyl}-4,5,6,7-tetrahydro-1H-pyrazolo[4,3-c]pyridin-1-yl)propyl]piperazin-1-yl}phenol], with 2230 nM.
As to `OC(CN1CCCC1)Cn1nc(-c2ccc(C(F)(F)F)c(SCCN3CCCCC3)c2)c2c1CCNC2` (stereo not shown) [Example 288, 1-(3-{3-[(2-Piperidin-1-ylethyl)sulfanyl]-4-(trifluoromethyl)phenyl}-4,5,6,7-tetrahydro-1H-pyrazolo[4,3-c]pyridin-1-yl)-3-pyrrolidin-1-ylpropan-2-ol], the IC50 was more than 20000 nM.
In the case of `CS(=O)(=O)N1CCc2c(c(-c3ccc(C(F)(F)F)c(SCCN4CCC(O)CC4)c3)nn2CC(O)CN2CCC(c3ccccc3)CC2)C1` (stereo not shown) [Example 706, 1-(2-{[5-{1-[2-Hydroxy-3-(4-phenylpiperidin-1-yl)propyl]-5-(methylsulfonyl)-4,5,6,7-tetrahydro-1H-pyrazolo[4,3-c]pyridin-3-yl}-2-(trifluoromethyl)phenyl]sulfanyl}ethyl)piperidin-4-ol] it was 15 nM; in that of `CC1CCN(C[C@H](O)Cn2nc(-c3ccc(C(F)(F)F)c(SCCN4CCCC(F)C4)c3)c3c2CCN(S(C)(=O)=O)C3)CC1` (stereo partly drawn) [Example 471, (2S)-1-{3-[3-{[2-(3-Fluoropiperidin-1-yl)ethyl]sulfanyl}-4-(trifluoromethyl)phenyl]-5-(methylsulfonyl)-4,5,6,7-tetrahydro-1H-pyrazolo[4,3-c]pyridin-1-yl}-3-(4-methylpiperidin-1-yl)propan-2-ol], 170 nM; in that of `CC1CCN(C[C@H](O)Cn2nc(-c3ccc(C(F)(F)F)c(SCCN4CCC(F)CC4)c3)c3c2CCN(S(C)(=O)=O)C3)CC1` [Example 474, (2S)-1-{3-[3-{[2-(4-Fluoropiperidin-1-yl)ethyl]sulfanyl}-4-(trifluoromethyl)phenyl]-5-(methylsulfonyl)-4,5,6,7-tetrahydro-1H-pyrazolo[4,3-c]pyridin-1-yl}-3-(4-methylpiperidin-1-yl)propan-2-ol], 100 nM.
In the case of `O=C(C1CCN(CC(O)Cn2nc(-c3ccc(C(F)(F)F)c(SCCN4CCCC(O)C4)c3)c3c2CCNC3)CC1)N1CCCC1` (stereo not shown) [Example 497, 1-(2-{[5-(1-{2-Hydroxy-3-[4-(pyrrolidin-1-ylcarbonyl)piperidin-1-yl]propyl}-4,5,6,7-tetrahydro-1H-pyrazolo[4,3-c]pyridin-3-yl)-2-(trifluoromethyl)phenyl]sulfanyl}ethyl)piperidin-3-ol] it was 6150 nM.
